BindingDB's records for doi:10.1021/acs.jmedchem.0c00182 (Inception Therapeutics, 2020)

Experiments:
[1] = Binding affinity to full length recombinant eIF4A1 (unknown origin) assessed as induction ternary complex formation in presence of AGAGAG by measuring Kd for CAACAA + ATP complex formation SPR assay (Rvb = 3.78 +/- 0.05 microM)
[2] = Binding affinity to full length recombinant eIF4A1 (unknown origin) assessed as induction ternary complex formation in presence of AGAGAG by measuring Kd for GGCGGC + ATP complex formation SPR assay (Rvb = 8 +/- 0.3 microM)
[3] = Binding affinity to full length recombinant eIF4A1 (unknown origin) assessed as induction ternary complex formation in presence of AGAGAG by measuring Kd for AGAGAG + ATP complex formation SPR assay (Rvb = 8 +/- 0.9 microM)
[4] = Binding affinity to full length recombinant eIF4A1 (unknown origin) assessed as induction ternary complex formation in presence of AGAGAG by measuring Kd for CCGCCG + ATP complex formation SPR assay (Rvb = 3.27 +/- 0.06 microM)

Which results are given for `COc1cc2c(c(OC)n1)[C@]1(O)[C@H](O)[C@H](CN(C)C)[C@@H](c3ccccc3)[C@]1(c1ccc(C#N)cc1)O2` [Zotatifin]?
Kd [1]: 2430 nM; Kd [2]: 3190 nM; Kd [3]: 21 nM; Kd [4]: 9600 nM
